Values of other authors as cited in patent US20130338178A1, “SIRTUIN MODULATORS AS INHIBITORS OF CYTOMEGALOVIRUS” (THE TRUSTEES OF PRINCETON UNIVERSITY, priority 2011, published 2013).

Columns and labels:
[1] = target: T1, SIRT1 (Homo sapiens, UniProt Q96EB6); settings: cited from earlier work
T1 sequence (Q96EB6 1-747): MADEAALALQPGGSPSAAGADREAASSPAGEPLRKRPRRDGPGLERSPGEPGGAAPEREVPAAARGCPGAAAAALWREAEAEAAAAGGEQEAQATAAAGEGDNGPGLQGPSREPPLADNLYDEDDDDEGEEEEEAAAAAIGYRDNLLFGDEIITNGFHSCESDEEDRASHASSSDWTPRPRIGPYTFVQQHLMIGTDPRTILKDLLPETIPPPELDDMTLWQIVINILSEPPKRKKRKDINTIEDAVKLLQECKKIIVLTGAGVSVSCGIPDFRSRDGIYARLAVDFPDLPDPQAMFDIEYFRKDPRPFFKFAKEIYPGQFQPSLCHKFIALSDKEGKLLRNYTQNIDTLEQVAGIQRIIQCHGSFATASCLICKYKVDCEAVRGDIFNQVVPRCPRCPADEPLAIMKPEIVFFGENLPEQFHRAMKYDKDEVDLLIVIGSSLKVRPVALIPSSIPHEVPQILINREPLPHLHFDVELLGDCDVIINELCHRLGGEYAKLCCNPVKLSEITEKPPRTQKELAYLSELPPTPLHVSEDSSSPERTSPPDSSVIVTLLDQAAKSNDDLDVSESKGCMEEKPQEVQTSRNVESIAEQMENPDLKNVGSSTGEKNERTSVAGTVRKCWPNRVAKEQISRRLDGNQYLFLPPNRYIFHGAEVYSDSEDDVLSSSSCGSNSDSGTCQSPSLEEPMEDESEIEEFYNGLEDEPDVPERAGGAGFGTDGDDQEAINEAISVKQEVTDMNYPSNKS

[2] = target: T1, SIRT1; settings: cited from earlier work; remark: listed apart in the source

Q: With `O=C1CCc2c(ccc3ccccc23)O1` [Splitomycin] as the compound, how does the IC50 [1] read?
A: > 500 µM

Q: For Cambinol, which IC50 [2] is on record?
A: 56 µM

Q: What about the IC50 [1] of the same compound?
A: > 600 µM

Where two headings read alike, the source gives them in different places.
